# logP (octanol/water) values, as collected for the OPERA models

Data: OPERA 2.9 data sets, kmansouri/OPERA on GitHub.

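OPERA's authors assembled the values from existing databases and did not measure them anew. A listed value is a point estimate from one report or more. Method and conditions are not stated for these values. Where a salt, mixture or single isomer is drawn, the source does not say that exactly this form was tested. Some upstream entries may be estimates or bounds without being marked so.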

The octanol-water partition coefficient is given as log10; larger values mean a more lipophilic compound.

structure (SMILES),logP
Nc1ccc(Nc2ccc3nc4ccc(Nc5ccc6nc7ccc(Nc8ccc9nc%10ccc(Nc%11ccccc%11)cc%10[n+](-c%10ccccc%10)c9c8)cc7[n+](-c7ccccc7)c6c5)cc4[n+](-c4ccccc4)c3c2)cc1.[O]=[Cr](=[O])([O-])[OH].[O]=[Cr](=[O])([O-])[OH].[O]=[Cr](=[O])([O-])[OH],-1
CCC(=O)Nc1cccc(Nc2cc(S(=O)(=O)[O-])c(N)c3c2C(=O)c2ccccc2C3=O)c1.[Na+],0.744
Nc1cc(Cl)nc(C(=O)O)c1Cl,0.009
CCC(=O)O[C@]1(C(=O)S)[C@H](C)C[C@H]2[C@@H]3C[C@H](F)C4=CC(=O)C=C[C@]4(C)[C@@]3(F)[C@@H](O)C[C@@]21C,1.298
CCCCC(CC)COCCCNS(=O)(=O)c1ccc2c(c1)-c1nc-2nc2[n-]c(nc3nc(nc4[n-]c(n1)c1ccc(S(=O)(=O)NCCCOCC(CC)CCCC)cc41)-c1ccccc1-3)c1cccc(S(=O)(=O)NCCCOCC(CC)CCCC)c21.[Cu+2] (centres undefined),1.294
CC(C)c1nc(N(C)S(C)(=O)=O)nc(-c2ccc(F)cc2)c1/C=C/[C@@H](O)C[C@@H](O)CC(=O)O,-0.88
COC(=O)CCN[N+](C)(C)C.[Br-],-3.26
OCCN1CCNCC1,-1.47
Cc1cc(S(=O)(=O)[O-])ccc1/N=N/c1c(O)ccc2ccccc12.[Na+],-0.95
Nc1ncnc2c1ncn2[C@@H]1O[C@H](COP(=O)(O)O)[C@@H](O)[C@H]1O,-1.81
COC(=O)C(C)CCC(=O)N(C)C (centres undefined),0.39
CC(C)(CO)C1OCC2(CO1)COC(C(C)(C)CO)OC2 (centres undefined),1.63
CCCCc1nc(Cl)c(CO)n1Cc1ccc(-c2ccccc2-c2nnn[nH]2)cc1,2.3
Cc1cccc(N(CCO)CCO)c1,1.9
CCCCn1c(O)c(N=Nc2ccc(C(=O)OCc3ccccc3)cc2)c(C)c(C#N)c1=O,5.87
COc1nc(OC)nc(-c2c(O)n(S(=O)(=O)C(F)F)c3c(F)cccc23)n1,0.8
CCOC(=O)[C@@H]1C2CCC(CC2)[C@H]1Nc1nc(Cl)ncc1F,3.6
Nc1ccccc1-c1cc(F)c(F)c(F)c1,3.3
CC1=CCC(CC#N)C1(C)C (centres undefined),2.96
CC(=O)[O-].COc1ccc(C(C[NH3+])C2(O)CCCCC2)cc1 (centres undefined),-1.58
O=P(O)(O)C(O)(Cc1cccnc1)P(=O)(O)O,-3.6
CC(O)C[N+](C)(C)C.O=C[O-] (centres undefined),0.01
CC(=O)[O-].CN1/C(=C\C=C\C2=[N+](C)c3ccccc3C2(C)C)C(C)(C)c2ccccc21,1.91
Nc1ccc(O)cc1[N+](=O)[O-],1.01
O=C(Nc1ccc2c(O)c(/N=N/c3ccccc3)c(S(=O)(=O)[O-])cc2c1)Nc1ccc2c(O)c(/N=N/c3ccccc3)c(S(=O)(=O)[O-])cc2c1.[Na+].[Na+],-2.215
NCCCCCCN.O=C(O)c1ccc(C(=O)O)cc1,2
Cc1nc2ccc(CN(C)c3ccc(C(=O)N[C@@H](CCC(=O)O)C(=O)O)s3)cc2c(=O)[nH]1,-1.2
CC(=O)OC/C=C(\C)C=O,0.63
CCCCCCC(O)CO (centres undefined),2.1
Nc1cc(Cl)c(Cl)cc1S(=O)(=O)O,-1
CCSSCC,3
C[N+](C)(C)[O-],-2.79
CCCn1nc2ccccc2n1,2.53
Cn1c(N)cc2ccccc21,1.72
COc1ccc(C(O)CC(O)c2ccc(C(C)(C)C)cc2)cc1 (centres undefined),3.8